Source: PubChem (ICCB-Longwood Screening Facility, Harvard Medical School)
In the library only some 0.43% were active in any assay of this set; here they are far more common.
GIV-Gai inh = inhibitors of GIV peptide binding to Galpha-i3, primary screen, biochemical, fluorescence polarization, FITC-GIV GBA peptide, rat Galphai3 | 90 min; stronger effect = lower value; scaled: aluminum fluoride 0%, vehicle 100% | AID 1224905, 2016 | 210,000 compounds, 0.42% hits | percent of control (FP), % (concentration not given with the values) | Guanine nucleotide-binding protein G(i) subunit alpha-3 (Rattus norvegicus), P08753;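 active = replicate mean at 85% of control or lower, very high polarization wells dropped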;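 note: wells of about 15 µL received 100 nL stock; the first replicate is given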
HCMV NEC inh = inhibitors of HCMV UL50-UL53 interaction, biochemical, HTRF. inhibition, % (no concentration beside the values). HCMV UL50-UL53 nuclear egress complex (human cytomegalovirus). 190,000 compounds, 0.15% hits. normalized percent inhibition; in the data active means inhibition above about 27%, passing the limit was not always enough
The depositor's hits bear a star; · = no result.

Sequences of proteins named here, by UniProt entry; tags and fusion partners are left off.
Guanine nucleotide-binding protein G(i) subunit alpha-3 (Rattus norvegicus), P08753, UniProt P08753, whole entry, looked up: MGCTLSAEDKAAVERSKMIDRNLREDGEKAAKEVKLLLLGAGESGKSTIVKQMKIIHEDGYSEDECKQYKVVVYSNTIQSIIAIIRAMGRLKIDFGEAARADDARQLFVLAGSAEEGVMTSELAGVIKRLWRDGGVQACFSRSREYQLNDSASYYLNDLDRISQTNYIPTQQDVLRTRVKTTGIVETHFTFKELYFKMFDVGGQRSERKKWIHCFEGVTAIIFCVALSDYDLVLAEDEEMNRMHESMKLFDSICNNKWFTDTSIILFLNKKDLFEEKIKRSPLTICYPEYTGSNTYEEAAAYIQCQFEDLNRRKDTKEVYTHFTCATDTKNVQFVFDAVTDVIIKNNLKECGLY

[1] CC(=O)OCCCN1/C(=C\C=C\c2n(CCCOC(C)=O)c3cc(Cl)c(Cl)cc3[n+]2C)N(C)c2cc(Cl)c(Cl)cc21
[2] CCOC(=O)c1cc2c(cc1C(=O)OCC)[n+](CC)c(/C=C/C=C1N(CC)c3cc(Cl)c(Cl)cc3N1CC)n2CC
[3] Cc1nn(CC(=O)Nc2ccc3c(c2)nc2n3CCN(C(C)C)C2)c(=O)c2ccccc12
[4] COC(=O)c1ccc(S(=O)(=O)N(CCO)Cc2cc3cc(OC)c(OC)cc3[nH]c2=O)cc1
[5] Cn1cccc1/C=C1\CC/C(=C\c2cccn2C)C1=O
[6] Cn1cccc1/C=C1\CCc2ccccc2C1=O
Screen / compound no. | 1 | 2 | 3 | 4 | 5 | 6
GIV-Gai inh | 59.7* | 121.5 | 100.1 | 98.6 | -74.8* | 144.0
HCMV NEC inh | · | · | -26.2 | -1.3 | · | ·

[7] COC(=O)c1sccc1NC(=O)Nc1ccc2nc(N3CCOCC3)cc(C)c2c1
[8] COc1ccc(NC(=O)C2CCN(C(=O)c3nnc(C(=O)Nc4ccc(F)cc4)s3)CC2)cc1
[9] CCN1CCCC1CNC(=O)NC1CC(=O)N(c2ccc(C)cc2)C1 (configuration not stated)
[10] CCOC(=O)Cc1csc(/N=C/c2nc(-c3ccc([N+](=O)[O-])cc3)oc2O)n1
[11] CC(C)(C)Cc1nc(-c2ccccc2)no1
[12] Cc1ccccc1Nc1c(-c2ccc(N(C)C)cc2)nc2ncccn12
Screen / compound no. | 7 | 8 | 9 | 10 | 11 | 12
GIV-Gai inh | 100.2 | 103.2 | 95.8 | 111.6 | 102.2 | 124.7
HCMV NEC inh | -8.9 | -14.7 | -33.4 | · | -16.8 | -42.1

[13] CC(C)c1ccc(Nc2nn3c(=O)c4ccccc4nc3s2)cc1
[14] COc1ccc(Nc2nn3c(=O)c4ccccc4nc3s2)cc1
[15] O=C(O)CN1C(=O)/C(=C\c2ccc(-c3ccc(Cl)c([N+](=O)[O-])c3)o2)SC1=S
[16] CCN1C(=O)/C(=C\c2ccc(-c3ccc(Cl)c(C(=O)O)c3)o2)SC1=S
[17] CCn1c(O)c(/C=c2/c(C)c(C#N)c3nc4ccccc4n3c2=O)n(CC)c1=S
[18] CCc1c(C)c(C#N)c2nc3ccccc3n2c1Nc1ccncc1
Screen / compound no. | 13 | 14 | 15 | 16 | 17 | 18
GIV-Gai inh | 97.6 | · | 110.8 | -14.8* | -48.2* | 112.0
HCMV NEC inh | 37.5* | -9.1 | -44.3 | -390.6 | · | ·

[19] Cc1c(C#N)c2nc3ccccc3n2c(=O)/c1=C/NN1C(=O)CNC1=S
[20] CCc1c(C)c(C#N)c2nc3ccccc3n2c1NCCN(C)C
[21] COc1cc(NC(=O)NCCN2CCCc3ccccc32)cc(OC)c1OC
[22] CCOc1ccc(S(=O)(=O)N2CCC(C)CC2)cc1-c1nc(C)no1
[23] Cc1cccc(CSc2nc3cccnc3n2Cc2ccccc2F)c1
[24] Cc1ccc(Cn2c(SCc3cccc(C)c3)nc3cccnc32)cc1
Screen / compound no. | 19 | 20 | 21 | 22 | 23 | 24
GIV-Gai inh | -30.7* | · | 105.3 | 106.7 | 101.1 | 105.9
HCMV NEC inh | -24.8 | -13.8 | -19.9 | -20.5 | -21.8 | 22.2*

[25] CC(=O)NCCCc1[nH]n(-c2ccccc2)c(=O)c1NC(=O)c1ccccc1
[26] CCCc1[nH]n(-c2ccccc2)c(=O)c1C(C)=NCCOC
[27] CCOC(=O)C1=C(C)N=c2s/c(=C/c3cc4c(cc3Cl)OCO4)c(=O)n2C1c1cc(OC)ccc1OC (configuration not stated)
[28] COCCN1C(=O)/C(=C/c2cc(OC)c(O)cc2Br)SC1=S
[29] COc1cc(OC)c(OC)cc1/C=C1/SC(=S)N(CC(=O)O)C1=O
[30] N#CC1=C(N)NC(SCC(=O)Nc2cccc3ccccc23)=C(C#N)C12CCCCC2
Screen / compound no. | 25 | 26 | 27 | 28 | 29 | 30
GIV-Gai inh | · | 106.9 | 108.4 | -61.3* | 133.6 | ·
HCMV NEC inh | 65.0* | 2.0 | · | -39.3 | -50.6 | -6.3

[31] CN1C(=O)/C(=C/C=C2/CCCN2C)N(C)C1=S
[32] C=CCN1C(=O)/C(=C\C=C2/CCCN2C)SC1=S
[33] CN(C)c1ccc(/C=C/C(=C(C#N)C#N)C2CC2)cc1
[34] N#CC(C#N)=C(/C=C/c1ccccc1)C1CC1
[35] CN(C)S(=O)(=O)c1ccc2c(c1)/C(=C/c1cc3c([nH]1)CCCC3)C(=O)N2
[36] O=C1Nc2ccc(Br)cc2/C1=C/c1cc2c([nH]1)CCCC2
Screen / compound no. | 31 | 32 | 33 | 34 | 35 | 36
GIV-Gai inh | 183.0 | -61.2* | -45.0* | · | -20.7* | ·
HCMV NEC inh | -188.0 | -77.5 | -39.2 | -2.8 | -17.6 | -2.6

[37] CCCN1CC(CSC)C[C@@H]2c3cccc4[nH]cc(c34)C[C@H]21 (some centres not stated)
[38] COc1ccccc1CNC(=O)C1(C)COc2c(oc3ccccc23)C(=O)N1CCC1=CCCCC1 (configuration not stated)
[39] Cc1sc(-c2cc(C(F)(F)F)[nH]n2)cc1S(=O)(=O)NCCc1cccs1
[40] CC(=O)NC(c1ccccc1F)C1CCCCC1=O (configuration not stated)
[41] O=c1c(-c2ccc(Oc3ccccc3)cc2)[n+]([O-])c2ccccc2n1O
[42] N#Cc1c(=O)n(O)c2ccccc2[n+]1[O-]
Screen / compound no. | 37 | 38 | 39 | 40 | 41 | 42
GIV-Gai inh | · | 103.1 | 101.7 | 96.8 | 116.4 | -33.3*
HCMV NEC inh | 50.4* | -29.3 | · | -26.0 | -63.8 | -132.5

Some of the entries so far, as a markdown table:
| No. | molecule | GIV-Gai inh | HCMV NEC inh |
| --- | --- | --- | --- |
| 38 | COc1ccccc1CNC(=O)C1(C)COc2c(oc3ccccc23)C(=O)N1CCC1=CCCCC1 (configuration not stated) | 103.1 | -29.3 |
| 39 | Cc1sc(-c2cc(C(F)(F)F)[nH]n2)cc1S(=O)(=O)NCCc1cccs1 | 101.7 | · |
| 40 | CC(=O)NC(c1ccccc1F)C1CCCCC1=O (configuration not stated) | 96.8 | -26.0 |
| 41 | O=c1c(-c2ccc(Oc3ccccc3)cc2)[n+]([O-])c2ccccc2n1O | 116.4 | -63.8 |

Continuation.
[43] O=C(c1ccccc1)c1nc2ccccc2oc1=O
[44] O=c1oc2ccccc2nc1/C=C(\O)c1cccs1
[45] Cc1ccccc1-c1noc(N2CCC(C(=O)N3CCOCC3)CC2)n1
[46] Cc1sc2ncn3nnnc3c2c1-c1ccccc1
[47] O=C(Nc1ccc2nc3c(=O)[nH]c(=O)[nH]c3nc2c1)C(F)(F)F
[48] Cc1ccc2nc3[nH]c(=O)[nH]c(=O)c3nc2c1
Screen / compound no. | 43 | 44 | 45 | 46 | 47 | 48
GIV-Gai inh | · | -68.8* | 108.5 | · | -15.9* | 102.6
HCMV NEC inh | -12.2 | -23.7 | 9.6 | -8.8 | · | ·

[49] COc1cc2c(cc1OC)C(c1ccccc1)CC(=O)N2 (configuration not stated)
[50] COc1cc2c(cc1OC)NC(=O)C2
[51] CC(C)(C)C(=O)Nc1ccc2c(c1)C(=O)C(=O)c1ccccc1-2
[52] CC(C)(C)C(=O)Nc1ccc(-c2nc3ccccc3s2)c(O)c1
[53] CC(=O)OCc1cc(C2C(C#N)=C(N)OC(N)=C2C#N)c(C)cc1C
[54] CCOC(=O)C1=C(C)OC(N)=C(C#N)C1c1ccccc1C (configuration not stated)
Screen / compound no. | 49 | 50 | 51 | 52 | 53 | 54
GIV-Gai inh | 106.6 | 96.8 | · | · | -1.1* | 108.4
HCMV NEC inh | 6.1 | 63.6* | 121.9* | -12.6 | · | ·

[55] Cc1cc(-c2csc(CC#N)n2)c(C)n1C1CC1
[56] CCCC(=O)Nc1cccn(Cc2cccc(OC)c2)c1=O
[57] COc1cccc(Cn2ccn(Cc3ccccc3)c(=O)c2=O)c1
[58] O=C(c1ccc2nc(/C=C(\O)c3ccc(Cl)cc3)c(=O)[nH]c2c1)N1CCOCC1
[59] O=C(c1ccc2nc(/C=C(\O)c3ccc(Cl)cc3)c(=O)[nH]c2c1)N1CCN(c2ccco2)CC1
[60] CC(=O)N1c2ccc(S(=O)(=O)N3CCCC3)cc2CC1C(=O)N1CCN(Cc2ccccc2)CC1 (configuration not stated)
Screen / compound no. | 55 | 56 | 57 | 58 | 59 | 60
GIV-Gai inh | · | 96.8 | 103.4 | 67.9* | 329.6 | 100.9
HCMV NEC inh | -44.0 | 50.0* | -27.9 | -95.0 | -81.1 | -29.6

[61] Cn1c(=O)cc2c3c(c(Br)ccc31)C(=O)c1ccccc1-2
[62] Cn1c(=O)c(O)c2c3c(c(Br)ccc31)C(=O)c1ccccc1-2
[63] O=C(/C=C/c1c(Cl)nc2sccn12)Nc1ccc2c(c1)OCCO2
[64] N#C/C(=C\c1ccc(-c2ccccc2)o1)c1ccccc1
[65] N#C/C(=C\c1ccc(N2CCCC2)o1)c1ccccc1
[66] O=c1[nH]c2ccc(NS(=O)(=O)c3cnc[nH]3)cc2s1
Screen / compound no. | 61 | 62 | 63 | 64 | 65 | 66
GIV-Gai inh | 110.8 | -29.3* | · | 136.8 | -49.5* | 99.2
HCMV NEC inh | · | · | -2.8 | 9.0 | -19.1 | -4.1

[67] O=c1nc2sc3[nH]c(=O)sc3cc-2s1
[68] OCCNCCNCc1ccc(-c2ccccc2F)o1
[69] CCN(CC)S(=O)(=O)c1ccc2c(c1)nc(CN1CCN(C(=O)Nc3ccc(C)cc3)CC1)n2C
[70] Cc1nnc(NC(=O)C2CCN(S(=O)(=O)/C=C/c3ccccc3)CC2)o1
[71] CC(C)(C)c1ccc(C2Oc3ccccc3C3CC(c4ccc(Br)cc4)=NN32)cc1 (configuration not stated)
Screen / compound no. | 67 | 68 | 69 | 70 | 71
GIV-Gai inh | -46.7* | 100.8 | 105.1 | · | 101.6
HCMV NEC inh | -77.7 | -1.4 | -16.9 | -32.1 | 42.5*
